The text below walks through data of US9120808B2 (NABRIVA THERAPEUTICS AG, priority 2009, dated 2015).

Protein sequences, listed by entry. Tags and fused reporters are not part of them. Lines headed by an entry give the natural chain unless they say otherwise; changes in a name come on top.
UniProt P0AD64: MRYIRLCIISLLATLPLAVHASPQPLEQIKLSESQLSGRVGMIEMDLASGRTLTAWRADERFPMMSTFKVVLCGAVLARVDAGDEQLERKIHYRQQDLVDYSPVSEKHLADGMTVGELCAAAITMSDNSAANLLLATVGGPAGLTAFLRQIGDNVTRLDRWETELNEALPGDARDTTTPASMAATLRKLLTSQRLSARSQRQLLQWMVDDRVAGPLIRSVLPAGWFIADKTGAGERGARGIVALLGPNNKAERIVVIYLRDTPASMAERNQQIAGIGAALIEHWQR

The assay has as its target SHV-1 β-lactamase (Klebsiella pneumoniae, UniProt P0AD64). Kind of assay: Cell-free β-lactamase inhibition study (nitrocefin hydrolysis). The format is biochemical. Particulars: 10 min pre-incubation at 37° C., nitrocefin substrate. How it is done: Cell-Free-β-Lactamase Inhibition Study
Assays are performed with β-lactamases expressed in the pET system (Novagen, San Diego, Calif.) without signal peptides. They contain an N-terminal hexa-Histidine tag that is used for purification on Ni-NTA (Qiagen, Hilden, Germany). The compounds are prepared as 50 mM stocks in DMSO and diluted into buffer P1 (50 mM phosphate, pH 7) to a final concentration of 10% DMSO. All further dilutions are done in P2 (P1 with 10% DMSO). Enzyme and compound dilutions are pre-incubated for 10 min at 37° C. and the reaction is started with the addition of pre-warmed (37° C.) nitrocefin at a final concentration of […]. […] The initial velocity is determined and IC50 values are calculated using non-linear regression and sigmoidal dose response analysis with the PRISM 4.0 software (Graphpad Software Inc., San Diego, Calif.).

A word on the IC50: it is the point on the concentration scale where inhibition reaches its midpoint. A lower IC50 goes with inhibition by little substance.

Molecule `COC(=O)C1C(=C(C=O)C/C=C/c2ccccc2)O[C@@H]2CC(=O)N12` (stereo partly shown) [Example 13] returned an IC50 of 0.0477 µM.
